This data set addresses calmodulin (unlabeled, as used in the gel mobility-shift and kinase assays of Example 2), P04353.

B1: lily CCaMK (calcium/calmodulin-dependent protein kinase), wild-type (1-520), recombinant, expressed in E. coli (protein)
chain: MSRHESRKLSDDYEVVDVLGKGGFSVVRRGISKSRGKNNDVAIKTLRRYGYTLPGAQRSQPGQRGLSPLGMPTLKQVSVSDALLTNEILVMRRIVEDVSPHPNVIHLHDVYEDANGVHLVLELCSGGELFDRIVAQDRYSESEAAEVVQQIASGLAALHKSTIIHRDLKPENCLFLNQEKRSTLKIMDFGLSSVEDFTDPIVALFGSIDYVSPEALSQRQVSSASDMWSLGVILYILLSGCPPFHAPSNREKQQRILAGDFSFEEHTWKTITSSAKDLISSLLSVDPYKRPTANDLLKHPWVIGDSAKQELIEPEVVSRLRSFNARRKLRAAAIASVLSSKVLLRTKKLKNLLGSHDMKSEELENLRAHFKRICANGDNATLPEFEEVLKAMKMNSLIPLAPRVFDLFDNNRDGTIDMREILCGLSNLRNSQGDDALQLCFQMYDADRSGCISKEELASMLRALPEDCVPADITEPGKLDEIFDQMDANSDGVVTFDEFKAAMQRDSSLQDVVLSSLRTI
As for B1, the “Ca2+-dependent autophosphorylation of CCaMK with 1 µM calmodulin” value is listed as “inhibited to basal levels (0.061 mol 32P/mol of CCaMK)”; the “calmodulin concentration at which kinase activity saturates, histone IIAS phosphorylation” value is given as “around 1.0 µM”; the “concentration of calmodulin required for half-maximal activity (Ka), histone IIAS phosphorylation” value was “approximately 0.2 µM”.

Source of the values: US6362395.
